Test results taken from patent publication US7744921B2, “Liposome loading with metal ions” (Celator Pharmaceuticals, Inc., priority 2001, dated 2010).

Test: Effect of buffer composition on precipitation of metal ion (20 mM histidine, triethanolamine to pH 7.4, visual inspection)
Assay type: physicochemical
Parameters: key: ppt: represents that the formation of a precipitate occurred after the addition of triethanolamine within a time course of 10 minutes; no ppt: represents that the formation of a precipitate did not occur after addition of triethanolamine to achieve a pH of 7.4 and within a time course of 10 minutes
Conditions: pH 7.4, 10 minutes
[1] = 150 mM metal in 20 mM histidine
[2] = 300 mM metal in 20 mM histidine

Nickel
no ppt: precipitation after addition of triethanolamine: Chloride [1] | precipitation after addition of triethanolamine: Sulfate [1] | precipitation after addition of triethanolamine: Chloride [2] | precipitation after addition of triethanolamine: Sulfate [2]
